Test results taken from patent US20060094649A1, “Hla-a1,-a2,-a3,-a24,-b7, and-b44 tumor associated antigen peptides and compositions” (priority 2002, published 2006).
Entries after “also recorded” stand apart in the source; their conditions may differ. Values belong to the compound of their own block, whether it stands above or below them.

Legend:
[1] = system: peptide-pulsed target cells; assay: In vitro primary CTL induction, recognition of peptide-pulsed targets (51Cr release or IFNγ ELISA); type: cell-based, human; details: for in vitro immunogenicity (CTL induction, in words): PBMC of normal donors
[2] = system: HLA-B7 supertype molecules; assay: HLA-B7 supertype cross-binding (B*0702, B*3501, B*5101, B*5301, B*5401)
[3] = system: HLA-A3 supertype molecules; assay: HLA-A3 supertype cross-binding (A*0301, A*1101, A*3101, A*3301, A*6801); details: for No. A3 supertype alleles crossbound (200): Table 20, binding affinity threshold of 200 nM or less; for number of A3 supertype alleles bound: of 5 alleles, affinity ≦500 nM

Compound: C[C@H](N)C(=O)N1CCC[C@H]1C(=O)N[C@@H](C)C(=O)N[C@@H](C)C(=O)N1CCC[C@H]1C(=O)N[C@H](C(=O)N1CCC[C@H]1C(=O)N[C@@H](C)C(=O)N[C@@H](C)C(=O)N1CCC[C@H]1C(=O)N[C@@H](C)C(=O)O)[C@@H](C)O
- Immunogenicity Peptide ([1]; Table 21): 0/1
- Immunogenicity Peptide ([1]; Table 17d): 0/1
- No. B7 supertype alleles crossbound (200) ([2]; Table 21, binding affinity threshold of 200 nM or less): 3
- Number of B7 alleles crossbound ([2]; Table 17d): 3

Compound: CC(C)C[C@H](NC(=O)[C@H](C)NC(=O)[C@@H]1CCCN1C(=O)[C@H](CO)NC(=O)[C@H](Cc1ccc(O)cc1)NC(=O)[C@@H](NC(=O)[C@@H](N)CS)[C@@H](C)O)C(=O)N[C@@H](CC(N)=O)C(=O)N[C@@H](CCCCN)C(=O)O
- Immunogenicity Peptide ([1]; Table 20): 0/1
- No. A3 supertype alleles crossbound (200) [3]: 3

Compound: CC(C)[C@H](NC(=O)[C@@H](N)CCCNC(=N)N)C(=O)N[C@@H](CS)C(=O)N[C@@H](C)C(=O)N[C@@H](CS)C(=O)N1CCC[C@H]1C(=O)NCC(=O)N[C@@H](CCCNC(=N)N)C(=O)O
- Immunogenicity Peptide ([1]; Table 20): 0/1
- No. A3 supertype alleles crossbound (200) [3]: 4

Compound: CC[C@H](C)[C@H](NC(=O)[C@@H](NC(=O)[C@@H](NC(=O)[C@H](CO)NC(=O)[C@@H](N)Cc1ccccc1)[C@@H](C)O)[C@@H](C)O)C(=O)N[C@@H](CC(N)=O)C(=O)N[C@@H](Cc1ccc(O)cc1)C(=O)N[C@H](C(=O)N[C@@H](CC(C)C)C(=O)N[C@@H](Cc1c[nH]c2ccccc12)C(=O)N[C@@H](CCCNC(=N)N)C(=O)O)[C@@H](C)O [compound 80]
- Immunogenicity Peptide ([1]; Table 16c, second part, positive/total tested): 3/3
- Number of A3 alleles crossbound ([3]; Table 16c, Mage2/3-derived): 3

Compound: C[C@@H](O)[C@H](NC(=O)[C@@H](N)CCCCN)C(=O)N[C@@H](Cc1ccc(O)cc1)C(=O)N[C@@H](CCC(N)=O)C(=O)NCC(=O)N[C@@H](CO)C(=O)N[C@@H](Cc1ccc(O)cc1)C(=O)NCC(=O)N[C@@H](Cc1ccccc1)C(=O)N[C@@H](CCCCN)C(=O)O [compound 104]
- Immunogenicity Peptide ([1]; Table 16d, second part, positive/total tested): 2/2
- Number of A3 alleles crossbound ([3]; Table 16d, p53-derived): 4

The next lines start with results.

- No. A3 supertype alleles crossbound (200) [3]: 2
Compound: CC[C@H](C)[C@H](NC(=O)[C@@H](N)CCCCN)C(=O)N[C@@H](CCCNC(=N)N)C(=O)N[C@@H](CCCCN)C(=O)N[C@@H](Cc1ccc(O)cc1)C(=O)N[C@H](C(=O)N[C@@H](CCSC)C(=O)N[C@@H](CCCNC(=N)N)C(=O)N[C@@H](CCCNC(=N)N)C(=O)O)[C@@H](C)O
- Immunogenicity Peptide ([1]; Table 20): 3/3

- Number of B7 alleles crossbound ([2]; Table 17a, CEA-derived): 4
Compound: CC[C@H](C)[C@H](N)C(=O)N1CCC[C@H]1C(=O)N[C@@H](Cc1c[nH]c2ccccc12)C(=O)N[C@@H](CCC(N)=O)C(=O)N[C@@H](CCCNC(=N)N)C(=O)N[C@@H](CC(C)C)C(=O)N[C@@H](CC(C)C)C(=O)N[C@@H](CC(C)C)C(=O)N[C@H](C(=O)N[C@H](C(=O)O)[C@@H](C)CC)[C@@H](C)O [compound 130]
- Immunogenicity Peptide ([1]; Table 17a, positive/total tested): 0/1

- number of A3 supertype alleles bound [3]: 24
Compound: HER2/neu.669 (9-mer): HER2/neu-derived A3 supertype wildtype 9-mer (Table 16b)
- in vitro immunogenicity (CTL induction, in words) [1]: immunogenic
- in vitro immunogenicity (CTL induction, in words) ([1]; listed as HER2/neu.669): capable of inducing a CTL response in normal donors
- number of A3 supertype alleles bound (candidate selection) ([3]; binding affinity threshold of 200 nM or less for each allele): 23

- number of A3 supertype alleles bound [3]: 3
Compound: p53.172B5K10: p53-derived A3 supertype analog, B at position 5 and K at position 10
- in vitro immunogenicity (CTL induction, in words) [1]: immunogenic; also recorded: Immunogenicity has already been demonstrated
- in vitro immunogenicity (CTL induction, in words) ([1]; listed as p53.172.B5KIO): immunogenic
- change in A3 supertype binding, analog vs wildtype (in words) [3]: improved binding to one of the two primary alleles
